## scFv variants of Ab-14 (heavy chain) against a SARS-CoV-2 spike peptide

Data: MIT Lincoln Laboratory AlphaSeq set, Li et al. 2023, doi:10.1038/s41467-023-39022-2, as distributed in FLAb.

Binding partner: SARS-CoV-2 spike HR2 peptide, sequence PDVDLGDISGINAS.

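The starting antibody came from a phage panning campaign against this peptide. Designed CDR sequences, proposed from the first random library and measured here. Group labels follow the data file (Ctrl: baseline library sampled from a position-specific scoring matrix, with some repeated check sequences; Rand: our label for a block that the file lists under HC and that is probably the random mutants of the ten best first-round binders; GP: Gaussian process model; GPLM: also part of the Gaussian process libraries; HC: hill climbing; Gen: genetic algorithm; Gibbs: Gibbs sampling; a sequence that several methods proposed may carry one label only). The scFvs were displayed on barcoded MATa yeast, the peptide on MATalpha yeast. Mating (16 h, 30 °C) was followed by selection of diploids and sequencing of their barcodes. The ratio of observed to expected reads was calibrated, replicate by replicate, on BCL2-family standards whose Kd was known from biolayer interferometry. The assay was run in six technical replicates.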

Parent scFv Ab-14: VH joined to VL by a 15-residue (Gly4Ser)3 linker. Changes lie in the heavy chain CDRs alone.
VH: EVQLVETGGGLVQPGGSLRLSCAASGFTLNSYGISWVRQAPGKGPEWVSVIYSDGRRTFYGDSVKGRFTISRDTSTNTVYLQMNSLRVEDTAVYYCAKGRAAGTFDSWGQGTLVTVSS
VL: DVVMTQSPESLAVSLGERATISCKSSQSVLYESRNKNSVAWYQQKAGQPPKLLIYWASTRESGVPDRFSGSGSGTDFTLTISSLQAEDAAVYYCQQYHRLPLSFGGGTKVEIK

Positions count from residue 1 of the parent VH; F27R puts R in place of F. Variants here have at most six changes. Scale: log10 of Kd in nM, estimated from mating counts; low values are strong binders. Replicates are averaged; those with no signal do not enter the mean. An entry "not detected" has no value in the source: the pair was not observed among the diploids in any replicate. This suggests poor binding but is not conclusive.

changes	group	log10 Kd (nM), mean	seen in
F27R+Y32T+R100W+S107V	Ctrl	not detected	0/6
T28S+S31E+G61H+R100K	GPLM_Gibbs	0.57	5/6
F27T+S31D	Ctrl	1.83	3/6
G61D+R100Q+A101L+S107N	GPLM_HC	0.85	6/6
S31E+K65R+A101E+F105I+S107V	Ctrl	not detected	0/6
T28Q+G61S+S63Q+R100Q	GP_Gibbs	0.54	6/6
T28D+G61A+R100T+A101E	Ctrl	0.21	6/6
S53A+A101H+D106K+S107I	GP_HC	not detected	0/6
T28S+G61A+A101L	GPLM_Gen	-0.17	6/6
R56M+G61S+R100Q+A101T	GP_Gibbs	-0.11	6/6
T28E+S53A+R100H+S107F	GP_Gibbs	0.46	6/6
T28D+D62W+T104W+D106N	Rand	not detected	0/6
G26K+F27K+T28S+G61S+A101T	GP_Gibbs	1.86	3/6
T28E+G61K+A101T+S107T	GP_Gen	0.78	6/6
T28E+S31E+G61T+S63H+A101F	GP_HC	1.11	5/6
T28S+S31M+G61A+A101T	GPLM_Gen	0.60	6/6
G26L+A101E+D106R	Ctrl	not detected	0/6
T28Q+S53A+F105N	GPLM_HC	not detected	0/6
T28D+S31E+S63A	GP_HC	0.25	6/6
S31E+S53A	Ctrl+GPLM_Gen	-0.55	12/12
F59W+G61S	Ctrl	1.12	6/6
N30R+S107H	Ctrl	not detected	0/6
S31E+G61S+R100K+T104F	GPLM_HC	not detected	0/6
T28S+G61A+R100V+A101E	GPLM_Gibbs	2.17	1/6
T28D+G61I+R100Q	GPLM_Gen	not detected	0/6
T28W+S31D+S53A	GP_HC	0.54	6/6
T28H+A101N+S107T	GP_Gibbs	1.07	3/6
N30Y+S31E+S107Q	Rand	1.75	3/6
T28N+G61I+A101E	GPLM_Gibbs	0.34	5/6
K65N+R100S	Ctrl	2.01	1/6
T28D+G61Q+R100W+A101T	GP_Gen	0.18	6/6
T28R+S31E+G61A	GP_HC	0.73	6/6
F27R+R56L	Ctrl	1.68	4/6
T28S+R100S	GPLM_Gen	0.49	6/6
T28W+S31E+G61S+R100K	GPLM_Gen	1.13	5/6
N30D+G61D+R100W+A101L	GP_HC	0.91	6/6
R56W+G61I+R100N	GP_Gen	1.11	1/6
R56H+R100V+G103A	Ctrl	not detected	0/6
S31D+T58F+F59Q+G61I	Rand	not detected	0/6
T28E+S31T+A101Q	GP_Gen	1.02	6/6
T28S+S31E+R56K+A101T	GPLM_Gibbs	-0.56	6/6
T28S+S31N+S53A+F105N	GP_HC	1.10	6/6
T28S+S31E+A101T+S107N	GPLM_Gen	-0.07	6/6
A101L+G103A	Ctrl	not detected	0/6
G61S+R100F+T104G	Ctrl	not detected	0/6
T104Y+S107N	Ctrl	2.45	4/6
S31D+I51M+F59Q+G61I+G99V	Rand	not detected	0/6

4 of these entries, quoted again:

{"changes": "N30D+G61D+R100W+A101L", "group": "GP_HC", "log10 Kd (nM), mean": "0.91", "seen in": "6/6"}
{"changes": "T28S+S31M+G61A+A101T", "group": "GPLM_Gen", "log10 Kd (nM), mean": "0.60", "seen in": "6/6"}
{"changes": "S53A+A101H+D106K+S107I", "group": "GP_HC", "log10 Kd (nM), mean": "not detected", "seen in": "0/6"}
{"changes": "T28D+S31E+S63A", "group": "GP_HC", "log10 Kd (nM), mean": "0.25", "seen in": "6/6"}

The range of this assay differs from that of the first round, and the authors advise against merging the two. Where one sequence has several entries in the source, the replicates are pooled. As a blank, each scFv also met three strains without target: over all heavy chain designs, 1% of these pairings were detected, typically at 2.08 and seldom below 0.84. The authors averaged sequences with at least three values out of six and counted those with two or fewer as poor binders.